Assay results taken from patent publication US20230011131A1, “NOVEL COMPOUND FOR INHIBITING HISTONE ACETYLTRANSFERASE P300 AND ANTI-FIBROSIS COMPOSITION COMPRISING SAME” (REFURE LIFE SCIENCE INC., priority 2019, published 2023).

The chains behind the UniProt entries cited, without tags or fusion partners.
UniProt Q09472, whole entry: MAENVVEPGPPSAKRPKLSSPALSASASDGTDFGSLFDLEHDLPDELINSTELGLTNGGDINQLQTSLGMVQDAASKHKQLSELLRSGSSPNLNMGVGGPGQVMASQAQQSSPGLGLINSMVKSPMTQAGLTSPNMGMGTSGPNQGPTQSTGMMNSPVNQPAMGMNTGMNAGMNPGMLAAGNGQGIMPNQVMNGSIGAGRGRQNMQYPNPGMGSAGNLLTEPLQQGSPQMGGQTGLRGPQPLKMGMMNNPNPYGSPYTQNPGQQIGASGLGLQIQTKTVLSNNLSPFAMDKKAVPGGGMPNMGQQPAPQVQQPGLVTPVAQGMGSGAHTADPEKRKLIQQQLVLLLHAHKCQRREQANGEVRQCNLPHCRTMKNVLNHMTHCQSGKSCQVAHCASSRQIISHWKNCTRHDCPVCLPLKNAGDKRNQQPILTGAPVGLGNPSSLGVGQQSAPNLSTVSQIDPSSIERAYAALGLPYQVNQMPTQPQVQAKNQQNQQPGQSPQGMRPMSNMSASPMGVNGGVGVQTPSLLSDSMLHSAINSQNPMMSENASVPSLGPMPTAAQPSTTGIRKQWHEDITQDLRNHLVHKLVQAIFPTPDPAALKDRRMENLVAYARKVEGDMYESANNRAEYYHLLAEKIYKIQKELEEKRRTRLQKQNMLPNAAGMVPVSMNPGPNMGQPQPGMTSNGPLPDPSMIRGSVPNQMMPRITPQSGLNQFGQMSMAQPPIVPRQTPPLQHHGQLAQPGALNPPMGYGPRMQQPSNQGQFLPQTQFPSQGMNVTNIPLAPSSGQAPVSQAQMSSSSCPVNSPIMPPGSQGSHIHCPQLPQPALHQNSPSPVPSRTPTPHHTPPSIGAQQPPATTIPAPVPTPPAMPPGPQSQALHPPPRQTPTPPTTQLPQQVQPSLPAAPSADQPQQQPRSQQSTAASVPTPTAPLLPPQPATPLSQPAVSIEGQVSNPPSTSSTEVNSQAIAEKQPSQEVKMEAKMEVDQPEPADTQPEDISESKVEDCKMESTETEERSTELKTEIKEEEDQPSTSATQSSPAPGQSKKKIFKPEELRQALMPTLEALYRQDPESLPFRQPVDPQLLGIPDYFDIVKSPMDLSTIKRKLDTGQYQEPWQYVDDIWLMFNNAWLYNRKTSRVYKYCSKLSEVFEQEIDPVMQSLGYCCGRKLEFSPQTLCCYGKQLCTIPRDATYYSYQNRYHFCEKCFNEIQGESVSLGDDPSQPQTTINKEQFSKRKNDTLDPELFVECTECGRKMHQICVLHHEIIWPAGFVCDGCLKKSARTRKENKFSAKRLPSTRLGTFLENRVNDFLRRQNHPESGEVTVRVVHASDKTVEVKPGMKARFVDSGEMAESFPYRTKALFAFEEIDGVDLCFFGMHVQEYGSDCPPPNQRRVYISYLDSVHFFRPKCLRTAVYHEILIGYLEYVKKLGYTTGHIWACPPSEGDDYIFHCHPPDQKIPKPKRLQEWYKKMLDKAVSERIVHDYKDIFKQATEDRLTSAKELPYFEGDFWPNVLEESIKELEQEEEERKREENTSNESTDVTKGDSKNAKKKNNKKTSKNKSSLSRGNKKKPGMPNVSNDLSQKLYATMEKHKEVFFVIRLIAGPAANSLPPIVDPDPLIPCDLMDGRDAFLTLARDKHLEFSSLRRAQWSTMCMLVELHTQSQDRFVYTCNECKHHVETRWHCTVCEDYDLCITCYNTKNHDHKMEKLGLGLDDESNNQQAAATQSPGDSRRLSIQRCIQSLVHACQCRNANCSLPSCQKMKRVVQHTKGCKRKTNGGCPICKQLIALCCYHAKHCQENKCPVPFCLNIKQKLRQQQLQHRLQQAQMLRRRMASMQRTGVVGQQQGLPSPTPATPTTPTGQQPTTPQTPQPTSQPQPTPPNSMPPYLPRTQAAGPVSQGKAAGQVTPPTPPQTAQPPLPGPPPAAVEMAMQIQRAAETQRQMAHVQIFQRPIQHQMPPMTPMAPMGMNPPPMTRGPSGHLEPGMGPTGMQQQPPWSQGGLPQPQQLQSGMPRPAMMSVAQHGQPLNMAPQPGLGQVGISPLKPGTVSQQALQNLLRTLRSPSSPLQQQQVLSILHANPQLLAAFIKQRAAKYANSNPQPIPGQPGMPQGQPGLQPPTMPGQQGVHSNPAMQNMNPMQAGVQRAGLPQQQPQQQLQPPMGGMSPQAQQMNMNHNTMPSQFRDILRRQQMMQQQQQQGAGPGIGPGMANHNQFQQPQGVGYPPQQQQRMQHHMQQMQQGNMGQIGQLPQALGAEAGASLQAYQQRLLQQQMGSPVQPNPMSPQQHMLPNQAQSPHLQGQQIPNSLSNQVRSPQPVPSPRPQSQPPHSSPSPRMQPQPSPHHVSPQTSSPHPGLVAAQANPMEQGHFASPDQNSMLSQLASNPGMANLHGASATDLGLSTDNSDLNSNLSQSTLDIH

Target: HAT p300 (histone acetyltransferase p300) (Homo sapiens, UniProt Q09472)
Experiment: HAT activity kit (Biovision K332): inhibition of HAT activity of p300
Assay type: biochemical
Conditions: read-out: IC50 (μM), inhibition of HAT activity; secondary screening; 0.5, 1, 10 and 100 μM
Description: Candidates 1 to 67, which are HAT inhibitors manufactured based on the PCAF structure, and HAT-24, HAT-26, and HAT-28 were diluted to 100 μM, and the degree of inhibition of HAT activity of p300 (inhibitory activity) was then determined using a kit for measuring HAT activity (Biovision, Cat No. K332, U.S.A) according to the method provided by the manufacturer. Here, the tissue was treated with C646 (HAT inhibitor) as a positive control.
Candidates 1 to 14 having a good HAT activity inhibitory effect in Section were diluted to concentrations of 0.5 μM, 1 μM, 10 μM, and 100 μM. Thereafter, the degree of inhibition of HAT activity was determined in the same manner as in Section.
Each of Synthesis Examples 1 to 24 was diluted to 100 μM, and the degree of inhibition of HAT p300 activity was determined in the same manner as in Section. Here, the tissues were treated with C646 and Candidate 12 (HAT-12) as the control instead of Synthesis Examples 1 to 24.

SMILES | IC50 [µM]
COc1cc(/C=C/C(=O)c2cc(OC)c(OC)c(OC)c2)cc(I)c1OCc1cccc(Cl)c1 | 0.953
COc1cc(/C=C/C(=O)c2cc(OC)c(OC)c(OC)c2)cc(Cl)c1OCc1cccc(C(N)=O)c1 | 32.8
COc1cc(/C=C/C(=O)c2cc(OC)c(OC)c(OC)c2)cc(Br)c1OCc1cccc(C(N)=O)c1 | 35.8

The remaining compounds from weak to strong by IC50, led by results:

IC50 [µM] | SMILES
41.7 | COc1cc(/C=C/C(=O)c2cc(OC)c(OC)c(OC)c2)cc(Br)c1OCc1cccc(Cl)c1
13.1 | COc1cc(/C=C/C(=O)c2cc(OC)c(OC)c(OC)c2)cc(Cl)c1OCc1cccc(Cl)c1
